The values below are quoted from earlier work in patent US20180015051A1, “MODULATORS OF ALPHA-DICARBONYL DETOXIFICATION AND THEIR USE FOR THE TREATMENT OF DIABETIC PATHOLOGIES” (Buck Institute for Research on Aging, priority 2016, published 2018).

The conditions of this data set: in mammals; Teichert et al. (2003); cited from earlier work.

In the case of `O=C(O)CCCCC1CCSS1` (stereo not shown) [LA, a-lipoic acid], the Metabolism result is “extensively metabolized”.
